Patent US4179467A, “Dopamine hydroxylase inhibiting 2-amino-cyclopent-1-ene-1-thiocarboxylic acid-disulfides” (Richter Gedeon Vegyeszeti Gyar Rt., priority 1976, dated 1979)
“And” between values parts separate entries of the source, which are not always exact repeats. Identical values can stand only once. Like-named read-outs stand apart in the source and are kept apart here.

Tested on: mice
Assay type: in vivo

## Dopastine
i.p.
  LD50: 250 to 500 mg/kg and 460 mg/kg
p.o.
  LD50: 750 mg/kg
